The source of these data is article PMC7822861, “A functional family of fluorescent nucleotide analogues to investigate actin dynamics and energetics” (Nature Communications, 2021).

The target in assay [1] is KU560-labeled S. cerevisiae profilin (Pfy1p) S36C/C89A (S. cerevisiae) (UniProt P07274). The assay is described as follows: fluorescence polarisation; steady-state fluorescence anisotropy of KU560 (excitation 555 nm, emission 650 nm); 0.5 µM KU560-profilin or 2 µM KU560-ADF/cofilin titrated with increasing concentrations of G-actin bound to ATP (control pre-incubated with ATP); G-buffer, room temperature. In general terms: Polarisation of emitted light reports the rotation of a fluorescent probe.

The target is the same in assay [2]. Briefly: fluorescence polarisation; steady-state fluorescence anisotropy of KU560 (excitation 555 nm, emission 650 nm); 0.5 µM KU560-profilin or 2 µM KU560-ADF/cofilin titrated with increasing concentrations of G-actin pre-incubated 150 min with a 5-fold excess of ATP-ATTO-488 (88% occupancy); G-buffer, room temperature.

Take “Rabbit muscle actin (from UniProt P68135 1-377) (natural protein)”: the values for the Kd in assay [1] and in assay [2] were 2100 nM and 2600 nM, respectively.
